Assay results taken from BindingDB's records for patent US20240109853 (Shanghai Yao Yuan Biotechnology Co., 2024).

Protein sequences, listed by entry. Tags and fused reporters are not part of them. Lines headed by an entry give the natural chain unless they say otherwise; changes in a name come on top.
UniProt Q96QP1: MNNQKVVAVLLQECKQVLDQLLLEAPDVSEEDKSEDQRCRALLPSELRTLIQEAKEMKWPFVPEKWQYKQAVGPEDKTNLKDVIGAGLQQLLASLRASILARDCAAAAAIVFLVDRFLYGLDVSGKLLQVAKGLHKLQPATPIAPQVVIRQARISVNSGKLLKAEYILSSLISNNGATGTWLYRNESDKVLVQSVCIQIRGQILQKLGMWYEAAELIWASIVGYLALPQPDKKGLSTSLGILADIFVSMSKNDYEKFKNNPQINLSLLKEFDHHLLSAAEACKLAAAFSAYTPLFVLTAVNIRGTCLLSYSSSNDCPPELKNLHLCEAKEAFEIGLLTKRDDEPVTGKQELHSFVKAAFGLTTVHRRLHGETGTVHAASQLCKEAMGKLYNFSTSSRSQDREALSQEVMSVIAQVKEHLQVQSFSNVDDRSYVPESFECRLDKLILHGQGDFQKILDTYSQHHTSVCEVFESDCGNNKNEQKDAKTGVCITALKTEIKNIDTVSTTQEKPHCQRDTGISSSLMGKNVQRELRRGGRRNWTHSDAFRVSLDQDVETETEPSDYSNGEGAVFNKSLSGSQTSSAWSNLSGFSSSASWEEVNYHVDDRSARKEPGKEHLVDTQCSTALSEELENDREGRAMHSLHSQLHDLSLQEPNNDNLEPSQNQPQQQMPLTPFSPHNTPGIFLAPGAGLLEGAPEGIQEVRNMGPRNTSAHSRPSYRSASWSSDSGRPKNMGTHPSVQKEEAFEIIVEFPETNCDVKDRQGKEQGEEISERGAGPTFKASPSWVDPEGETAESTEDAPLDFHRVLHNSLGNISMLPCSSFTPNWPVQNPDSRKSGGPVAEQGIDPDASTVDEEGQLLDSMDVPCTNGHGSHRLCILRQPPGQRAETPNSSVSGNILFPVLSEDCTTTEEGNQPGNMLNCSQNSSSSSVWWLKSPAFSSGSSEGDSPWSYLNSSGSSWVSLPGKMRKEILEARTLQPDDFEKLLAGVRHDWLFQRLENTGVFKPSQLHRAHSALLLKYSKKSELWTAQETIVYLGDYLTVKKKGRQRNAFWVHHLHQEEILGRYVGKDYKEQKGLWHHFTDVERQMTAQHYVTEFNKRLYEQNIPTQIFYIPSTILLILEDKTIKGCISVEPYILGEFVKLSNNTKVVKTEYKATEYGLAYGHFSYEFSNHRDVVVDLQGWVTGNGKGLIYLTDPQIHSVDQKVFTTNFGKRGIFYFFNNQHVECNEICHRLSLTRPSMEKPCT

Target: Alpha-protein kinase 1 (Homo sapiens, UniProt Q96QP1)
Test: ALPK1 In Vitro Kinase Assay
Method: ALPK1 kinase activity was measured in an in vitro assay using ADP-Heptose as the ALPK1 ligand and activator of its kinase activity and TIFA protein as the ALPK1 phosphorylation substrate. Since phosphorylated TIFA proteins oligomerize, Homogeneous Time-Resolved Fluorescence (HTRF) was used to measure protein: protein interaction between HA-tagged TIFA proteins as an indicator of TIFA phosphorylation. In brief, dose-response studies were performed with […] in 384-well assay plates. Each well contained 0.1 mg TIFA, ALPK1 (2 nM final concentration in reaction mixture) and kinase buffer (100 mM of HEPES pH 7.4, 4 mM DTT, 40 mM MgCl2, 20 mM of β-Glycerol phosphate disodium salt, 0.4 mM of Na3VO4, 0.16 mg/mL). Titrations of the test compounds were prepared in dimethylsulphoxide (DMSO). The reaction was initiated by addition of ATP and ADP-Heptose.

Structure (SMILES): C#CC(C)(c1ccc(Br)cc1)c1csc(NC(C)=O)n1 (stereo unspecified) [US20240109853, Compound D004]
- IC50: 18 nM
